Antibody variant affinities, Ab-95 light chain, assay 2

All variants were tested on one target, the spike HR2 peptide PDVDLGDISGINAS (SARS-CoV-2).

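The starting antibody came from a phage panning campaign against this peptide. Variants in AAYL52 differ from the parent at up to three CDR positions; double and triple changes were sampled at random. The assay is AlphaSeq: two haploid yeast populations carry antibody and antigen on their surface. Mating (16 h, 30 °C) was followed by selection of diploids and sequencing of their barcodes. A regression on co-assayed BCL2-family reference pairs converts the normalised counts of each replicate to an apparent Kd. Mating was done three times.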

Parent: Ab-95, a human scFv built as VH, a 15-residue (Gly4Ser)3 linker, VL. Only the CDRs of the light chain vary.
VH: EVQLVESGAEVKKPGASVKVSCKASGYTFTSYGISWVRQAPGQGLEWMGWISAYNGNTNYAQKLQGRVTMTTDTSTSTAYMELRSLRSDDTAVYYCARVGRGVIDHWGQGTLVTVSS
VL: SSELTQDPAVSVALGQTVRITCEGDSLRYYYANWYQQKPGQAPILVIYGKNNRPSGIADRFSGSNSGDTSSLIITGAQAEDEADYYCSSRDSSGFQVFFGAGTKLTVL

The parent's light chain CDRs are EGDSLRYYYAN, GKNNRPS, SSRDSSGFQVF; each variant's own CDRs replace them letter for letter. The read-out is the apparent dissociation constant on a log10 scale (nM): the lower, the stronger. Replicates are averaged; those with no signal do not enter the mean. "ND" marks a missing value. The strain was present, yet no cells mated with the target were sequenced in that replicate, which points to weak or no binding. In this assay the parent's reference entry averaged 2.31; its copy inside this library read 2.25. Background: pairings of library AAYL52 with three empty control strains gave a value in 28% of cases (median 3.91, 5th percentile 2.90). Values in that range, when seen in few replicates, are hard to tell from nonspecific mating. For each scFv, signals with the empty controls are counted beside the result, with their mean in brackets.

| # | CDR-L1 | CDR-L2 | CDR-L3 | replicates, log10 nM | log10 Kd (nM), mean | empty controls |
|---|---|---|---|---|---|---|
| 1 | EGDSLRYYYAN | GKYNRPS | SSRISSGLQVF | ND ND ND | ND | 2/9 (3.85) |
| 2 | EGDSLRYYYAN | GKNPRPS | SSRDSKGFQVF | 4.04 ND ND | 4.04 | 2/9 (3.56) |
| 3 | EGDCDRYYYAN | GKNNRPS | SSRDSSGWQVF | 4.27 5.38 ND | 4.82 | 3/9 (3.17) |
| 4 | EWDSLRNYYAN | GKNNRPS | SSFDSSGFQVF | ND 3.13 ND | 3.13 | 1/9 (2.54) |
| 5 | EGDSLRYYYAN | GKNNWTS | SSRDSSAFQVF | 3.61 ND ND | 3.61 | 3/9 (4.02) |
| 6 | EGDSLRYYYAN | GKNNRPS | SYRDGSQFQVF | ND ND ND | ND | 4/9 (3.36) |
| 7 | EGDSLRYYYAN | GKNNRPS | SSRDSSGVPVY | 2.71 2.76 2.49 | 2.65 | 5/9 (3.90) |
| 8 | EGDKLCYYYAM | GKNNRPS | SSRDSSGFQVF | 2.97 2.69 2.40 | 2.69 | 5/9 (3.59) |
| 9 | EGDSLRYYYAN | GKNNGNS | SSRDSSGKQVF | ND ND ND | ND | 1/9 (3.58) |
| 10 | EGDSLQYYYAN | GKNNRPS | SSRDSGGFQVF | 2.66 2.05 1.85 | 2.19 | 2/9 (3.70) |
| 11 | EGDILRYHYAN | GKNNRPS | SERDSSGFQVF | 3.56 3.74 ND | 3.65 | 4/9 (3.93) |
| 12 | EGDSLRYCYAN | GKNNFPS | SSRDSWGFQVF | 3.60 4.00 3.86 | 3.82 | 5/9 (4.46) |
| 13 | EGDSLRTYYAN | GKNNRPS | SSRDYSGSQVF | 1.99 1.90 2.03 | 1.97 | 3/9 (3.77) |
| 14 | EIDQLRYYYAN | GKNNRPS | SSCDSSGFQVF | ND 2.48 ND | 2.48 | 0/9 |
| 15 | EGFSLRYYYAN | GKENRPS | SSTDSSGFQVF | 2.84 3.65 ND | 3.24 | 3/9 (4.02) |
| 16 | EGDSLRYTKAN | GKNNRPS | SSRDSSGFDVF | 2.00 2.07 1.99 | 2.02 | 5/9 (3.67) |
| 17 | EGDSHRYYYAN | GCNNRPS | SSRDSSGFQEF | 4.72 ND ND | 4.72 | 6/9 (4.06) |
| 18 | NGDSLRYYYAN | GKQNRPS | SSRSSSGFQVF | 2.67 3.01 2.87 | 2.85 | 5/9 (3.95) |
| 19 | EGDSLRFYYAN | GKNNRPS | SSRDSSPFQVM | 5.02 ND ND | 5.02 | 1/9 (4.71) |
| 20 | EKDSLRYYYAN | GKNNRPS | SSRDSSGFLVF | 4.14 3.62 ND | 3.88 | 2/9 (3.76) |
| 21 | EGDSLCYYYAN | GKNNRPS | WSRDSSWFQVF | ND 4.30 3.23 | 3.76 | 4/9 (3.99) |
| 22 | EIWSLRYYYAN | GKNNRPS | SSRDSFGFQVF | 4.72 ND 3.83 | 4.27 | 3/9 (3.91) |
| 23 | EGYSLRYYYAN | GKNNIPQ | SSRDSSGFQVF | ND ND 3.33 | 3.33 | 1/9 (4.98) |
| 24 | EGDSLKWYYYN | GKNNRPS | SSRDSSGFQVF | 4.60 4.48 ND | 4.54 | 3/9 (3.94) |
| 25 | EGDSLFYYYAN | HKCNRPS | SSRDSSGFQVF | ND ND ND | ND | 2/9 (3.40) |
| 26 | EGDSLRYYYAN | GKNNRRS | SSRDGSGFQVF | 3.73 3.95 ND | 3.84 | 3/9 (3.58) |
| 27 | EGDSLRYYYAN | GKNHRPS | SSRYMSGFQVF | ND ND ND | ND | 0/9 |
| 28 | EGDSLRYYYAN | GKNNKPS | SSRNSSGFQVT | 2.21 4.00 ND | 3.10 | 0/9 |
| 29 | EGDSHRYYYAN | GNNNRPC | SSRDSSGFQVF | ND 4.21 ND | 4.21 | 2/9 (3.62) |
| 30 | EGDSLRYYYAN | GKNNRPS | SSRDMSGYQCF | 3.84 ND 4.19 | 4.02 | 3/9 (3.77) |
| 31 | EGDSLRYAYAN | GMNNRPS | SSRDASGFQVF | 1.20 1.19 0.60 | 1.00 | 8/9 (3.71) |
| 32 | EGISLRYYYVN | GKNFRPS | SSRDSSGFQVF | 3.21 3.08 3.70 | 3.33 | 3/9 (4.32) |
| 33 | EGDSLTWYYAN | GKNNEPS | SSRDSSGFQVF | 3.22 3.62 3.73 | 3.52 | 4/9 (3.69) |
| 34 | QGKSLRYYYAN | GKNNRPS | ASRDSSGFQVF | 2.02 1.99 1.66 | 1.89 | 3/9 (3.88) |
| 35 | EGDSLRYYYAN | GKNIRPS | NGRDSSGFQVF | 2.66 2.96 2.79 | 2.80 | 0/9 |
| 36 | EGDSLRYYYAN | GKNCRPS | SSRDSSGFQEV | 3.95 ND 4.13 | 4.04 | 3/9 (3.94) |

From the list, the first 3 with no signal in any replicate:

{"CDR-L1": "EGDSLRYYYAN", "CDR-L2": "GKYNRPS", "CDR-L3": "SSRISSGLQVF", "replicates, log10 nM": "ND ND ND", "log10 Kd (nM), mean": "ND", "empty controls": "2/9 (3.85)"}
{"CDR-L1": "EGDSLRYYYAN", "CDR-L2": "GKNNRPS", "CDR-L3": "SYRDGSQFQVF", "replicates, log10 nM": "ND ND ND", "log10 Kd (nM), mean": "ND", "empty controls": "4/9 (3.36)"}
{"CDR-L1": "EGDSLRYYYAN", "CDR-L2": "GKNNGNS", "CDR-L3": "SSRDSSGKQVF", "replicates, log10 nM": "ND ND ND", "log10 Kd (nM), mean": "ND", "empty controls": "1/9 (3.58)"}

Values reported by Engelhart et al. 2022, doi:10.1038/s41597-022-01779-4 (FLAb copy).